# Laboratory results taken from PMC3169429 (ACS chemical biology, 2010).
# Experiments:
# [1] = target: T1, bacteriophage T4 clamp loader, gp44/62 (Enterobacteria phage T4, UniProt P04526); experiment: ATPase inhibition assay, wild-type gp44/62; assay type: biochemical
# T1 sequence (P04526 1-319): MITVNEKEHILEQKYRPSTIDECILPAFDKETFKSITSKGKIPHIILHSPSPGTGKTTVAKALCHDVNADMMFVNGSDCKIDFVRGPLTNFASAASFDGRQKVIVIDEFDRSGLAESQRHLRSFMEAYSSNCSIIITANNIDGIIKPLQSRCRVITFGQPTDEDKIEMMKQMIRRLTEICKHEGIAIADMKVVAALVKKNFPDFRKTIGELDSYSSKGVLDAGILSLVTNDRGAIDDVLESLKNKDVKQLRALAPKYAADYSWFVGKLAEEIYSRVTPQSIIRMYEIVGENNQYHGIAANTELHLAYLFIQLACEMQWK
# T1 sequence (P04527 1-187 partner): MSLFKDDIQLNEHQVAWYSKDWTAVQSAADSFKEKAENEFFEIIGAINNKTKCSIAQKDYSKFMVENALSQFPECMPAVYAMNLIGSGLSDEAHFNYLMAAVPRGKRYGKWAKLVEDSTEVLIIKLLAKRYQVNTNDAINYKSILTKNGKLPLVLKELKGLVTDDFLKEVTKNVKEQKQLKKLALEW
# R175K mutant of gp44/62 = R175K mutant of gp44/62 (Enterobacteria phage T4, UniProt P04526, R175K); experiment: ATPase inhibition assay, gp44/62 R175K mutant; assay type: biochemical, bacteriophage T4; details: arginine replaced with lysine
# gp44/62 = target: T2, gp44/62 (Enterobacteria phage T4, UniProt P04526); experiment: Hydrolysis of nucleotide substrates by gp44/62; assay type: biochemical, bacteriophage T4; details: nucleotide substrates at 500 µM
# T2 sequence (P04526 1-319): T1 sequence (P04526 1-319)
# T2 sequence (P04527 1-187 partner): T1 sequence (P04527 1-187 partner)
# Outline: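 Wild-type T4 gp44/62 purified from an overproducing strain. Each ribo- or deoxy-nucleotide was supplied as substrate. Hydrolysis was read as Pi release by malachite green.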
smiles,measurement,setting,value
"O=[N+]([O-])c1ccc2c(ccn2[C@H]2C[C@H](O)[C@@H](COP(=O)(O)OP(=O)(O)OP(=O)(O)O)O2)c1 [d5-NITP, 5-nitro-indolyl-2’-deoxyriboside triphosphate]",Sensitivity factor,"[1]; [(Km/Ki)pathogen]/[(Km/Ki)host], against gp44/62",20
same,Hill coefficient,[1]; dose-dependent inhibition of gp44/62 ATPase activity,~ 1
same,Mode of inhibition,[1]; double reciprocal plot versus ATP,"reversible, competitive inhibition"
same,Fold lower Ki than AMP-PNP,[1]; gp44/62,~ 300 fold
same,Fold lower Ki than ATPγS,[1]; gp44/62,~ 5 fold
same,"Fold decrease of binding affinity, R175K versus wild-type",R175K mutant of gp44/62,~ 3 fold
same,Hydrolysis by gp44/62,gp44/62,not hydrolyzed by gp44/62
